Experiment [1] has as its target Cow serum albumin (cow) (UniProt P02769). Nature of the experiment: SPR, SA on chip, 1:1 fit, 25 C.
The target in experiment [2] is Human serum albumin (human) (UniProt P02768). The experiment is described as follows: SPR, SA on chip, 1:1 fit, 25 C.
Experiment [3] deals with Mouse serum albumin (mouse) (UniProt P07724). Nature of the experiment: SPR, SA on chip, 1:1 fit, 25 C. (In general: SPR reads the build-up and loss of mass on a sensor chip optically.)
Experiment [4] deals with Soluble human TNFα (human) (UniProt P01375). The experiment is described as follows: cell-based or functional assay.
In experiment [5] the target is Membrane human TNFα on MT104 H2 CHO cells (human) (UniProt P01375). The experiment is described as follows: cell-based or functional assay.
Experiment [6] addresses Soluble cyno TNFα (cyno) (UniProt P79337). Nature of the experiment: cell-based or functional assay.
The target of experiment [7] is Pig serum albumin (pig) (UniProt P08835). Nature of the experiment: SPR, SA on chip, 1:1 fit, 25 C.
Experiment [8] has as its target Rat serum albumin (rat) (UniProt P02770). The experiment is described as follows: SPR, SA on chip, 1:1 fit, 25 C.
Experiment [9] addresses Cynomolgus monkey serum albumin (cynomolgus monkey) (UniProt A2V9Z4). Nature of the experiment: SPR, SA on chip, 1:1 fit, 25 C.
In experiment [10] the target is Dog serum albumin (dog) (UniProt P49822). The experiment is described as follows: SPR, SA on chip, 1:1 fit, 25 C.

pKd: −log10 of the molar value.

Consider three substances from patent publication US20240316154A1.

In the case of “VHH-based fusion of Example 9, Fab-VHH fusion (AdaFab VHCH1-(G4Q)5-MC6.1C22.43 with AdaFab VLCL) (bispecific antibody; other documents disagree on this pair)”, in [1], the pKd is 6.47, the koff came to 0.085 s⁻¹ and the kon was 250000 M⁻¹ s⁻¹. In experiment [2], this substance had a pKd of 8.89, a koff of 0.00028 s⁻¹ and a kon of 210000 M⁻¹ s⁻¹. Further, in experiment [3], the negative-log Kd (pKd) is 7.37, the koff was found to be 0.01 s⁻¹ and the kon was 230000 M⁻¹ s⁻¹.
Regarding “Control Fab of Example 13 (AdaFab VHCH1 with AdaFab VLCL)”, in experiment [4], the EC50 (nM)-Geo Mean, Soluble Human TNFα Inhibition is 0.703 nM and the EC50 Geo Mean (µg/mL), L929 cytotoxicity neutralization was 0.0333 µg/mL. In [5], this substance returned an EC50 (nM)-Geo Mean, Membrane Human TNFα Inhibition of 4.24 nM and an EC50 Geo Mean (µg/mL), L929 cytotoxicity neutralization of 0.201 µg/mL. In [6], the EC50 (nM)-Geo Mean, Soluble Cyno TNFα Inhibition amounted to 2.17 nM and the EC50 Geo Mean (µg/mL), L929 cytotoxicity neutralization stood at 0.102 µg/mL.
“VHH-based fusion of Example 9, Fab-VHH fusion (AdaFab VHCH1-(G4Q)5-MC6.1C22.43 with AdaFab VLCL) (bispecific antibody)”: the pKd in [7] is 7.08; in [8], 7.48; in experiment [9], 8.37; in experiment [10], 7.82. The koff was 0.013 s⁻¹ in experiment [7], 0.0071 s⁻¹ in experiment [8], 0.00094 s⁻¹ in [9] and 0.0037 s⁻¹ in experiment [10]. The kon was 150000 M⁻¹ s⁻¹ in experiment [7], 210000 M⁻¹ s⁻¹ in experiment [8], 220000 M⁻¹ s⁻¹ in [9] and 240000 M⁻¹ s⁻¹ in experiment [10]. This substance registered an EC50 (nM)-Geo Mean, Soluble Human TNFα Inhibition in [4] of 0.886 nM. The EC50 Geo Mean (µg/mL), L929 cytotoxicity neutralization in experiment [4] was 0.0562 µg/mL; in experiment [5], 0.294 µg/mL; in experiment [6], 0.175 µg/mL. The substance also gave an EC50 (nM)-Geo Mean, Membrane Human TNFα Inhibition in experiment [5] of 4.64 nM. The same substance gave an EC50 (nM)-Geo Mean, Soluble Cyno TNFα Inhibition in [6] of 2.76 nM.

As a reminder, the pKd is −log10 of the Kd, conventionally taken in molar units. As usually defined, the koff is the rate constant with which the complex falls apart. One may read the kon as the rate constant with which the complex forms.
